Data published in patent US20260176659A1, “IMPROVED METHOD FOR THE PRODUCTION OF NATURAL VANILLIN” (BASE SE, priority 2022, published 2026).

Assay: Bioconversion of eugenol to vanillin: one-pot concurrent cascade EUGO + alkene cleavage oxygenase (5 mM scale)
Format: biochemical
Details: Table 8b, EUGO FD-CFE 1 mg/mL, CO-0X FD-CFE 1 mg/mL, catalase 10 mg/mL, eugenol 5 mM
Protocol: Stock solutions of eugenol (100 mM) were prepared in ethanol or DMSO and stored at −20° C. Unless otherwise stated, the reaction mixtures (0.5 mL) were set up in 1.5 mL glass vials as follows: freeze-dried cell free extract of IECO/CO-XX (3 mg) and EUGO (0.5 mg) were dissolved in the reaction buffer (50 mM glycine-NaOH pH 9.0) containing sodium ascorbate (1 mM), FeSO4 (1 mM) and bovine liver catalase (5 mg, Sigma Aldrich C40). The reaction was initiated by the addition of 0.025 mL eugenol stock (final concentration 5 mM), then incubated at 30° C. and 120 rpm overnight (rotary shaker). The final content of cosolvent was 5% v/v. To improve oxygenation, the vials were placed horizontally. At certain time points, samples (0.2 mL) were quenched with methanol (0.4 mL) and the mixture was centrifuged at 20238 g for 5-10 mins. Finally, the supernatant was analysed by HPLC.
EUGO (0.5 mg CFE), CO-25 (3 mg CFE) and catalase (5 mg, Sigma product #C40) were dissolved in 50 mM Glycine-NaOH pH 9.0 or Tris-HCl pH 8.0 together with FeSO4 (1 mM) and sodium ascorbate (1 mM). Note that the buffer content of the freeze-dried biocatalyst prep was not considered for the assembling of the reaction. The reaction was started by the addition of 5 mM eugenol from a 20× stock in ethanol. The reactions—performed in glass vials—were then incubated at 30° C. and 120 rpm (25 mm shaker). Finally, samples of the reaction mixture were diluted with MeOH and analyzed by HPLC at 280 and 340 nm. […] From 5 mM eugenol in 0.5 mL scale reaction, we obtained 83-88% conversion to vanillin 3a (Table 9).

B1: CO-14: alkene cleavage oxygenase, Caulobacter segnis, SEQ ID NO: 66 (protein, listed as Caulobacter segnis)
chain: MGIRFPNNDFKNFEAPMRAEIDLAGLEVVQGEVPKELSGGFFRLIGDRKWPAFVENDIFMLGEDGMASCFYFKDGRVDFKMRYVRTPRFVAEEKAGRALFGEYRNPFTDDPSVAGLSRGTANVTMLAHAGKLFAMKEDSPVIEMDPFTLETIGEYDWGGAVTAKAITAHPKIDPRTGELIFFGYCAAGPATRDVAYYEADAEGRIIHEAWFKAPYTCMVHDIMVTEHYVVFPITPLRHELEWIERREPAFKWDPNEEVYLGVLPRKGNGDQIRWFKGPNQCHGHTVGAFDDGRYIYADNTFSKRSFFHFFPNVDGSAFSPADTMPYMKRIVIDMESEGDHFTEQKLFEYPCELPRIDTRFETMDYNFVTMNLLDVPGQERVGHGFQWVATMDVNGNKPSKIYYAGDDCSIGEPQFVPKSNDAPEGEGYILTVVGKHQEMRSELLILDASDINAPPVATVALPFRLRSTGHGYWYSTSQLLGETNVLGAS
With B1 the “Product distribution after 24 hours 2a (%)” value (pH 8.0) was 78.9%, the “Product distribution after 24 hours 3a (%)” value (pH 8.0) was 5.1% and the “Product distribution after 24 hours 5a (%)” value (pH 8.0) was 16.0%. For the same molecule, the “Product distribution after 24 hours 2a (%)” value (pH 9.0) was 73.9%, the “Product distribution after 24 hours 3a (%)” value (pH 9.0) was 4.0% and the “Product distribution after 24 hours 5a (%)” value (pH 9.0) was 22.1%.
